The experiment has as its target beta-lactamase TEM-1 (Escherichia coli) (UniProt Q5J463). Put plainly: PubChem AID 2755. The settings on record: TEM-1 enzyme, epi-absorbance substrate hydrolysis.

In general, IC50 refers to the concentration that gives 50% inhibition. Consider `CCN1C(=O)c2cccc3c(N)ccc(c23)C1=O`, for which the IC50 was 5.86 µM.

Values taken from PubChem BioAssay AID2755 (The Scripps Research Institute Molecular Screening Center, 2010).
